Patent US12251427B2, “Reduced oxygen carriers and their use for the treatment of carboxyhemoglobinemia” (priority 2016, dated 2025)

Test system: HbCO
Experiment: Severe CO poisoning mouse model: HbCO level by spectrometry
Type: in vivo, mice
Settings: Example 9
Procedure: To establish a model for cardiovascular and mortality end points, tracheally intubated, ventilated, anesthetized mice were exposed to 30,000 ppm (3%) CO gas, with 21% oxygen and 1.5% isoflurane for 4.5 minutes. Mice were surgically instrumented with placement of jugular venous (for infusion of drug) and carotid arterial (for blood pressure and heart rate monitoring) catheters. In this model, there was 88.2% (15/17) mortality in a group infused with 300 μL of PBS post exposure, while all mice that received an infusion of 11 mM myoglobin survived (0% mortality; n=5). Survival of mice infused with myoglobin was due to the reversal in hemodynamic collapse and bradycardia induced by CO (FIG. 5).
Through the jugular venous catheter, the HbCO level was sampled using spectrometry. Immediately after 4.5 minutes of CO exposure, the HbCO level was on average 84 to 88%. […] Mouse half-life for CO is much faster than for humans. […] Survival in mice infused with reduced myoglobin resulted from a restoration of heart rate (top) and mean arterial blood pressure (bottom).
Tracheally intubated, ventilated, anesthetized mice were exposed to 30,000 ppm (3%) CO gas, with 21% oxygen and 1.5% isoflurane for 4.5 minutes. Mice were surgically instrumented with placement of jugular venous (for infusion of drug) and carotid arterial (for blood pressure and heart rate monitoring) catheters. […]

albumin: albumin infused as control beside PBS in the severe CO poisoning model [reference compound]
HbCO level (five minutes after infusion): 80% | HbCO level (ten minutes after treatment): 75%
